Some compounds may have been tested in ways that are not shown here.
Molecular target: hGlyT-1b (Homo sapiens, UniProt P48067)
Test: Glycine uptake inhibition assay (hGlyT-1b), [3H]-glycine uptake in transfected CHO cells
Settings: read-out: IC50 (μM) at GlyT-1; CHO cells stably transfected with hGlyT-1b cDNA; [3H]-glycine 60 nM and 25 μM non-radioactive glycine; 30 min at 22–24° C.

Chains of the proteins cited; added tags and fusions are not shown. Residues count along the entry.
UniProt P48067, 1-652 isoform 3: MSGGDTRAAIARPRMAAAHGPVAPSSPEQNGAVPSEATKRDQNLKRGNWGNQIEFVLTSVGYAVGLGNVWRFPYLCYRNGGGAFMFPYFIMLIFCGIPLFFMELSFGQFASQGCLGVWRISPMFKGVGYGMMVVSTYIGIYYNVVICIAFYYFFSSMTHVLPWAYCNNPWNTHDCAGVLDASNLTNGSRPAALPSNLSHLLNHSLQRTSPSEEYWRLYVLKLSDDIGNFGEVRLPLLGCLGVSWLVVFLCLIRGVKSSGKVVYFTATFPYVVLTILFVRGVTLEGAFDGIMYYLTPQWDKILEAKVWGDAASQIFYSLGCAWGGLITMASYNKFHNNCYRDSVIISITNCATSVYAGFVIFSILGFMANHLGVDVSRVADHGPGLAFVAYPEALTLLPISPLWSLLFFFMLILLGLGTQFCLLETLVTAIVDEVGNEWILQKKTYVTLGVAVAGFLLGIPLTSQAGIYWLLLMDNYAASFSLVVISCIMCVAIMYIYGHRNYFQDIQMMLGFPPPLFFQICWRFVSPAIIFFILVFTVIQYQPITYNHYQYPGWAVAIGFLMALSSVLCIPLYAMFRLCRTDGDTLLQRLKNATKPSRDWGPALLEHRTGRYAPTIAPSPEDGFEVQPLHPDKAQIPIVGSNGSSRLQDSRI

O=C(c1cccc(C(F)(F)F)c1)N(c1ccc(Cl)cc1)C1CCN([C@@H]2CCCC[C@@H]2c2ccccc2)CC1 (racemic)
IC50: 0.098 µM

From US7176316B2, “Amino-piperidine derivatives” (Hoffmann-La Roche Inc., priority 2003, dated 2007)
